# Patent publication US20090209535A1, “6-ETHER/THIOETHER-PURINES AS TOPOISOMERASE II CATALYTIC INHIBITORS AND THEIR USE IN THERAPY” (TOPOTARGET A/S, priority 2005, published 2009)
# Test system: human SCLC OC—NYH cells
# Assay: Clonogenic assay, antagonism of etoposide-induced cytotoxicity
# Conditions: concentrations up to 300 μM
smiles,measurement,value
Nc1nc2nc[nH]c2c(=S)[nH]1 [6-thioguanine],"effect on the level of etoposide-induced cytotoxicity, in words",no detectable effect
